Assay results as given in patent publication US4596893A (priority 1985, dated 1986).

Target: spinach chloroplastises (2. photochemical system) (Spinacia oleracea, UniProt P69560)
Test: Determination of Hill-reaction inhibition
Format: biochemical
Settings: read-out: I50 (concentration belonging to 50% Hill-reaction inhibition); spinach chloroplast suspension, K3Fe(CN)6, 5000 lux for 20 minutes, extinction at 420 nm

## Cc1cc([N+](=O)[O-])cc([N+](=O)[O-])c1O
  IC50: 860 nM
